Like-named read-outs stand apart in the source and are kept apart here.
Tested on: Fab
Settings: Capto L, compared to PBS control

## OO [5% H2O2, hydrogen peroxide]
4 h incubation in SIP solution, 10' incubation with Fab sample
  Relative remaining SBC (%): 104%
24 h incubation in SIP solution, 90' incubation with Fab sample
  Relative remaining SBC (%): 105%
